{
  "source": "paper PMC9144445",
  "about": "“Substrate-Based Design of Cytosolic Nucleotidase IIIB Inhibitors and Structural Insights into Inhibition Mechanism” (Pharmaceuticals, 2022)",
  "target": "T1, human cN-IIIB (Homo sapiens, UniProt Q969T7)",
  "T1 sequence (Q969T7 1-300)": "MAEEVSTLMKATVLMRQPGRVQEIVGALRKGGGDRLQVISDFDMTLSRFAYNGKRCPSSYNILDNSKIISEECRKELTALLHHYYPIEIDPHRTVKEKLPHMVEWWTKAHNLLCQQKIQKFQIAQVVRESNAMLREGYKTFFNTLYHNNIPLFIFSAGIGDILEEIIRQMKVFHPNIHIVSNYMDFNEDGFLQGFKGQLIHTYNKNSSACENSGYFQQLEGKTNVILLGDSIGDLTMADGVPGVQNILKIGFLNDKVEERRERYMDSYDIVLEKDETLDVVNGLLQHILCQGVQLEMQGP",
  "assay": "Hydrolysis assay: susceptibility to hydrolysis by cN-IIIB (MGP assay)",
  "assay_type": "biochemical",
  "set-up": "expressed as a construct of full-length protein (residues 1–300); His6 (N, cleaved yes); ubiquitin-like Smt protein (SUMO) (N, cleaved yes); made in house",
  "conditions": "cN-IIIB 80 nM, 45 min; for Susceptibility to hydrolysis by cN-IIIB (in words): compound 100 μM",
  "data": [
    {"smiles": "C[n+]1cn([C@@H]2O[C@H](COP(=O)(O)O)[C@@H](OC(=O)NCCC(=O)[O-])[C@H]2O)c2nc(N)[nH]c(=O)c21", "note": "[Compound S31]", "values": [
      {"measurement": "Susceptibility to hydrolysis by cN-IIIB (in words)", "value": "susceptible to hydrolysis"}
    ]},
    {"smiles": "C[n+]1cn([C@@H]2O[C@H](COP(=O)([O-])O)[C@@H](O)[C@H]2O)c2nc(N)[nH]c(=O)c21", "note": "[m7GMP, 7-mehtylguanosine monophosphate, reference compound]", "values": [
      {"measurement": "Dephosphorylation of compound by cN-IIIB (absolute)", "setting": "100 μM", "value": "about 40%"}
    ]},
    {"smiles": "C[n+]1cn([C@@H]2O[C@H](COP(=O)([O-])O)[C@@H](O)[C@H]2NC(=O)CCCC[C@@H]2SC[C@@H]3NC(=O)N[C@@H]32)c2nc(N)[nH]c(=O)c21", "note": "[Compound S32]", "values": [
      {"measurement": "Susceptibility to hydrolysis by cN-IIIB (in words)", "value": "prevented hydrolysis"}
    ]},
    {"smiles": "C#CCn1c(N)nc2c(ncn2[C@@H]2O[C@H](COP(=O)(O)O)[C@@H](O)[C@H]2O)c1=O", "note": "[Compound S23]", "values": [
      {"measurement": "Susceptibility to hydrolysis by cN-IIIB (in words)", "value": "susceptible to hydrolysis"}
    ]},
    {"smiles": "C[n+]1cn([C@@H]2O[C@H](Cn3cc(COP(=O)([O-])O)nn3)[C@@H](O)[C@H]2O)c2nc(N)[nH]c(=O)c21", "note": "[Compound S17]", "values": [
      {"measurement": "Susceptibility to hydrolysis by cN-IIIB (in words)", "value": "confirmed as a cN-IIIB substrate"}
    ]}
  ]
}
